Patent US6337206B1 (priority 1997, dated 2002)

Amino acid sequences for entries named in this document (tags omitted). A change or cut given only in a name is not applied to a line headed by its entry.
UniProt P10683: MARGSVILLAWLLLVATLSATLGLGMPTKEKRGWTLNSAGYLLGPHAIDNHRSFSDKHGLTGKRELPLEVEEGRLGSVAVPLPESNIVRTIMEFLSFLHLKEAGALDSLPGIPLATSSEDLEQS

T1: human GALR1 (human, UniProt P47211 1-349)
T1 chain: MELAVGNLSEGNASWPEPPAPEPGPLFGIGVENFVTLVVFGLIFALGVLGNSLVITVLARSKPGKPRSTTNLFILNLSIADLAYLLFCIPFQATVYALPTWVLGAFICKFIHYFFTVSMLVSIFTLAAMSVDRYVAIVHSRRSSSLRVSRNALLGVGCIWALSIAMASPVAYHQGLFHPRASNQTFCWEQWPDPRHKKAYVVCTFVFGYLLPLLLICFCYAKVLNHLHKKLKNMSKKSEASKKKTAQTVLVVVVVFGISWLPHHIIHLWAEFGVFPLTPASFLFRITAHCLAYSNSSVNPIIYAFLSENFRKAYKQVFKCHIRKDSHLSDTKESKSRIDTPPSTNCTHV

B1: rat Gal (3-29) (peptide)
peptide: TLNSAGYLLGPHAIDNHRSFSDKHGLT
B2: rat Gal (2-29) (peptide, UniProt P10683 34-61, looked up)
peptide: WTLNSAGYLLGPHAIDNHRSFSDKHGLT
notes: range 2-29; also called rGAL(2-29)

Biological target: T1, human GALR1
Assay: competition

Binder | IC50 [nM]
B1 | > 1000
B2 | 17
